Test results as given in ChEMBL document CHEMBL5360528, “A systematic review on the kappa opioid receptor and its ligands: New directions for the treatment of pain, anxiety, depression, and drug abuse” (Eur J Med Chem, 2022).

The chains behind the UniProt entries cited, without tags or fusion partners. Where a name states a change or a piece, a line headed by the entry shows the natural chain unless it says otherwise.
UniProt P35372, whole entry, looked up: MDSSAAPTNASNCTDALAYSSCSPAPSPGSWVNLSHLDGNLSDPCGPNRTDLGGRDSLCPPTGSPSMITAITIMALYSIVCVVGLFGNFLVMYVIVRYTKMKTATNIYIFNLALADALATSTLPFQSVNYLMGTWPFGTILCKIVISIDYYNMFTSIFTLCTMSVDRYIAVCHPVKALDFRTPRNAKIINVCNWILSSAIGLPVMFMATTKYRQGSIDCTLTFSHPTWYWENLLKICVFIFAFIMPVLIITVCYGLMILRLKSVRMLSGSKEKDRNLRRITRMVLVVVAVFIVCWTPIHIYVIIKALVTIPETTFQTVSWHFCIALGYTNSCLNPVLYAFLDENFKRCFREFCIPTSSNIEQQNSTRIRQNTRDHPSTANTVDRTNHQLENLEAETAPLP
UniProt P41144: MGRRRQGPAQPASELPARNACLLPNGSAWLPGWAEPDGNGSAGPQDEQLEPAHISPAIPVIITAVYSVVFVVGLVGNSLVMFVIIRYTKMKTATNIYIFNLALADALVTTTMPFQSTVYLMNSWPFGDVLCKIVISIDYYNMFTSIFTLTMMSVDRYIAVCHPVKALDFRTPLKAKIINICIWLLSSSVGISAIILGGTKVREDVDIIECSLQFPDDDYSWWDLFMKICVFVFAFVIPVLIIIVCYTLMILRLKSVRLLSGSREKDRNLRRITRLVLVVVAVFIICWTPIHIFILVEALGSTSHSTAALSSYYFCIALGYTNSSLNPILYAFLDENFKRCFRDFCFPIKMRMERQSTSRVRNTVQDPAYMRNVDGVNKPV
UniProt P41145: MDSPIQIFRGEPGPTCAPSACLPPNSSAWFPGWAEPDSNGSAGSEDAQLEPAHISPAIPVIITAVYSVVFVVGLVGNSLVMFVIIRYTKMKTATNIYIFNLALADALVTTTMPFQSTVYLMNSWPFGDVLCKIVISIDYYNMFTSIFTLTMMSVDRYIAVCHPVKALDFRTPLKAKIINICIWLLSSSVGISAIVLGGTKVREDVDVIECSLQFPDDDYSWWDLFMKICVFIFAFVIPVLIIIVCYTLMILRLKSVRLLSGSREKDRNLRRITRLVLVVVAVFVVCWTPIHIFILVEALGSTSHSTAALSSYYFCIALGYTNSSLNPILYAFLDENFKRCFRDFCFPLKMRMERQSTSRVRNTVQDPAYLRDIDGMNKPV

Columns and labels:
Mu-type opioid receptor = Mu-type opioid receptor (Homo sapiens, UniProt P35372); experiment: Binding affinity to MOR (unknown origin) assessed as inhibition constant by radioligand binding assay
[1] = target: T1, Kappa-type opioid receptor (Cavia porcellus, UniProt P41144); experiment: Binding affinity to KOR in Guinea pig brain assessed as inhibition constant
[2] = target: T1, Kappa-type opioid receptor; experiment: Agonist activity at KOR in guinea pig brain membranes assessed as stimulation of [35S]GTPgammaS binding measured after 1 hr by liquid scintillation counting analysis
[3] = target: T2, Kappa-type opioid receptor (Homo sapiens, UniProt P41145); experiment: Binding affinity to KOR receptor (unknown origin) assessed as inhibition constant
[4] = target: T2, Kappa-type opioid receptor; experiment: Agonist activity at human KOR expressed in CHO cell membranes by beta-arrestin translocation assay
Mus musculus = experiment: Antinociceptive activity in CD-1 mouse assessed as maximum possible effect at 10 nmol, icv measured after 15 mins by tail-flick test; details: 0.25 h

`CN(C(=O)Cc1ccc(Cl)c(Cl)c1)C1CCCCC1N1CCCC1` (stereo unspecified) showed a Ki (Mu-type opioid receptor) of 370 nM.
With `COC(=O)[C@@H]1C[C@H](OC(C)=O)C(=O)[C@H]2[C@@]1(C)CC[C@H]1C(=O)O[C@H](c3ccoc3)C[C@]21C` [listing 1 of 2 here] the Ki [1] was 4.3 nM.
For `COC(=O)[C@@H]1C[C@H](OC(C)=O)C(=O)[C@H]2[C@@]1(C)CC[C@H]1C(=O)O[C@H](c3ccoc3)C[C@]21C` [listing 2 of 2 here], the Ki [2] was > 5000 nM.
`CN(C(=O)Cc1ccc(Cl)c(Cl)c1)C1CCC2(CCCO2)CC1N1CCCC1` (stereo unspecified) showed a Ki [3] of 8.6 nM, an EC50 [4] of 1.01 nM and an ED50 (Mus musculus) of 10.3 pmol.
